The list shows a part of the results, in another mix than the full data. Some tests of the compounds listed are not included; inactive here does not mean inactive elsewhere. Results filed as inconclusive are left out. Calls of active or inactive are those of the source. The call rests on the fitted dose curve; in most records, active means well fitted inhibition curve with a large enough effect; inconclusive means small, poorly fitted or top-dose-only effect; inactive means flat fitted curve, though single readings scatter.
Assay: Acumen qHTS Assay for Inhibitors of the mTORC1 Signaling Pathway in MEF (Tsc2-/-, p53-/-) Cells: Sytravon; further: nearly all actives have a fitted effect of over 50% in size
Details: phospho-rpS6 immunofluorescence/PI, 24 h; at 38.3 µM (top of the series)
Source text: NIH Molecular Libraries Probe Production Centers Network [MLPCN] NIH Chemical Genomics Center [NCGC] MLPCN Grant: NS059428-01 Assay Submitter (PI): Blenis, John; Hoffman, Greg; Harvard University NCGC Assay Overview: The mammalian target of rapamycin (mTOR) is an intracellular serine/threonine kinase Aberrant regulation of mTOR signaling plays a causative role in a number of human diseases, including cancer, benign tumors such as lymphangioleiomyomatosis (LAM) and Tuberous Sclerosis Complex (TSC), and metabolic diseases such as diabetes and obesity. This project aims to identify inhibitors of ribosomal protein S6 (rpS6) phosphorylation. The phosphorylation of rpS6 is a key event downstream of mTOR activation. The assay uses a phospho-specific antibody of phospho-rpS6 to detect inhibitors of mTOR activation. Mutations in the Tsc1 and Tsc2 genes are the underlying genetic lesions responsible for TSC, causing constitutive activation of the mTORC1 pathway and leading to profound effects on cell metabolism. Aberrant metabolism in cancer has recently received significant attention as a target to develop therapeutic agents in the treatment of cancer.1 As Tsc2-/- cells have lost the ability to respond to energy and growth factor deprivation, these cells are unable to properly down regulate cellular biosynthetic processes in response to metabolic stress, and are thus extremely sensitive to glucose deprivation-induced death.2 A central goal of this project is to explore the unique cell survival and metabolic properties of cells with Tsc1 or Tsc2 by screening for compounds that selectively target the Tsc2-/- MEFs by screening both Tsc2-/- and WT MEF cell lines. We hope to better understand these aspects of TSC physiology in order to exploit them for therapeutic benefit.
NCGC Acumen Assay Protocol Summary: For quantitative high throughput analysis of mTORC1 signaling, we developed a cell-based assay for immuno-fluorescence based detection of rpS6 phosphorylation on the Acumen Explorer that will be used a platform for the primary small molecule screen. Mouse embryonic fibroblasts (MEFs) are cultured in 1536-well plates using DMEM + 10% FBS. Twenty-four hrs after plating, test compounds (solubilized in DMSO) are delivered and incubated with the cells for 24 hrs at 37 degree Celsius. Following the incubation, media with compound is aspirated and the cells are fixed in 4% paraformaldehyde (PFA) containing PBS + 0.2% TX-100. Next, PFA is aspirated, cells are washed two times with PBS plus 0.2% TX-100 and the cells are blocked for 1 hr at room temperature (blocking buffer: LiCOR Blocking Buffer plus 0.2% TX-100). […] Cells are washed two times with PBS plus 0.2% TX-100, and stained with 10 uM propidium iodide (PI) for 20-25 minutes for cell number measurement (1:500 dilution of Hoescht staining is also added for IN Cell imaging). The plates are scanned on the Acumen Explorer laser scanning instrument (TTP Labtech) using the 488nm laser for simultaneous excitation of the Alexa-488 and PI. […] The normalized phospho-S6 staining is calculated as the ratio of the integrated Alexa 488 intensity divided by the integrated PI intensity for the single concentration rapamycin control (7.5 nM) and DMSO columns. […] Inhibition of the pathway is defined based on the normalized phospho-S6 intensity in rapamycin treated cells. Active cells are defined as those with a normalized phospho-S6 staining above this threshold, and each treatment is reported as the % positive cells in the well, where thresholds are defined by selecting wells with the highest and lowest signal and differentiating between the % non-active and % active populations. In addition to the pathway specific phospho-S6 endpoint, the number of PI stained cells from the Acumen is recorded as a measure of cell viability. The primary screen was performed with a MEF cell line in a defined genetic background, Tsc2-/-, p53-/- cell line stably transfected with an empty vector control (Tsc2-/- MEF).

Row | Structure (SMILES) | activity change, negative = inhibition
1 | COc1ccc(C(=O)NCC2(N(C)C)CCCCC2)cc1Cl | inactive: 1.75%
2 | CC(C)Oc1ccc(C(=O)NCC2(N(C)C)CCCCC2)cc1 | inactive: 2.23%
3 | Cc1cccc(C(=O)NCC2(N(C)C)CCCCC2)c1 | inactive: -8.41%
4 | COc1cc(C(=O)NCC2(N(C)C)CCCCC2)cc(OC)c1OC | inactive: 1.07%
5 | COc1cccc(C(=O)NCC2(N3CCOCC3)CCCCC2)c1 | inactive: -1.03%
6 | CN(C)C1(CNC(=O)c2ccccc2F)CCCCC1 | inactive: 1.6%
7 | CN(C)C1(CNC(=O)c2cccc(Cl)c2)CCCCC1 | inactive: -0.506%
8 | CCOc1cccc(C(=O)NCC2(N(C)C)CCCCC2)c1 | inactive: -2.65%
9 | CCCCOc1ccccc1C(=O)NCC1(N(C)C)CCCCC1 | inactive: -0.725%
10 | CN(C)C1(CNC(=O)c2ccccc2[N+](=O)[O-])CCCCC1 | inactive: -8.41%

— PubChem BioAssay AID493208 (National Center for Advancing Translational Sciences (NCATS), 2011)
